Laboratory results taken from PubChem BioAssay AID492972 (The Scripps Research Institute Molecular Screening Center, 2010).
The entries are a selection whose mix differs from that of the whole data set. Some tests of the compounds listed are not included; inactive here does not mean inactive elsewhere. Activity calls are given as the source filed them.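 The calls were made as follows: active = inhibition above the screen-wide average of all tested compounds plus 3 SD (cut at about 25% in these data); inactive = the rest.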

Chains of the proteins cited; added tags and fusions are not shown.
UniProt Q15102, whole entry: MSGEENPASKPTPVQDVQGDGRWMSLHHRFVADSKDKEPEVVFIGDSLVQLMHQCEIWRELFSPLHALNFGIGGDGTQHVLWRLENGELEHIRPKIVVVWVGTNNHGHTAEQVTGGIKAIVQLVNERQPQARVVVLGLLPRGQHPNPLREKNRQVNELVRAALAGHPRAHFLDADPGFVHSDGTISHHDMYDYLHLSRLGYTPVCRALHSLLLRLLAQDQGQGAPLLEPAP

These compounds were tested against Platelet-activating factor acetylhydrolase IB subunit alpha1 (Homo sapiens) (UniProt Q15102) (assay: PAFAH1B3 enzyme inhibitors, primary screen, biochemical, fluorescence polarization, human (AID 492972;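 also: 0% = enzyme with DMSO only and 100% = wells lacking PAFAH1B3 protein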)). Conditions: recombinant PAFAH1B3, FP-rhodamine probe, at 3.39 µM, hits give high values.
`CN1[C@@H]2CC[C@H]1CC(OC(=O)C(O)(c1ccccc1)c1ccccc1)C2` (stereo not given in full) was tested, and the inhibition was inactive: 6.95%.
For `O=C(NCC1(N2CCCCC2)CCCCC1)c1cc([N+](=O)[O-])ccc1Cl`, the inhibition was inactive: 7.61%.
For `Cc1ccc(C(=O)NCC2(N3CCCCC3)CCCCC2)cc1`, the inhibition was inactive: 0.56%.
With `CC(C)N1C(=O)CC2(CCN(CCOC(=O)C(O)(c3ccccc3)c3ccccc3)CC2)C1=O` the inhibition was inactive: 6.21%.
`CCN(CC)CC(C)C(C)OC(=O)C(O)(c1ccccc1)c1ccccc1` (stereo not given) was tested, and the inhibition was inactive: -1.99%.
`COc1cc(SC)ccc1C(=O)NCC1(N(C)C)CCCCC1` was tested, and the inhibition was inactive: 8.13%.
`Cc1ccccc1C(=O)NCC1(N2CCCCC2)CCCCC1` was tested, and the inhibition was inactive: -2.9%.
With `CN(C)C1CCCC1OC(=O)C(O)(c1ccccc1)c1ccccc1` (stereo not given) the inhibition was inactive: 5.38%.
For `CN(C)c1ccc(C(=O)NCC2(N(C)C)CCCCC2)cc1`, the inhibition was inactive: 3.53%.
`Cc1cc(C(=O)NCC2(N3CCCCC3)CCCCC2)ccc1[N+](=O)[O-]` was tested, and the inhibition was inactive: -2.38%.
In the case of `CCN1CCCC(OC(=O)C2(O)c3ccccc3C=Cc3ccccc32)C1` (stereo not given), the inhibition is reported as inactive: -1%.
With `O=C(NCC1(N2CCCCC2)CCCCC1)c1cccc(Br)c1` the inhibition was inactive: -4.06%.
In the case of `COc1ccc(C(=O)NCC2(N(C)C)CCCCC2)cc1`, the inhibition is reported as inactive: 3.93%.
In the case of `C=CCN1CCN(CCOC(=O)C(O)(c2ccccc2)c2ccccc2)CC1`, the inhibition is reported as inactive: 3.53%.
With `O=C(NCC1(N2CCCCC2)CCCCC1)c1cc(F)c(F)cc1Cl` the inhibition was inactive: 6.23%.
In the case of `COc1cc(C(=O)NCC2(N(C)C)CCCCC2)c([N+](=O)[O-])cc1OC`, the inhibition is reported as inactive: 15.1%.
`CN(C)C1(CNC(=O)c2ccc(Br)cc2)CCCCC1` was tested, and the inhibition was inactive: 4.45%.
With `O=C(NCC1(N2CCCCC2)CCCCC1)c1cccc(Cl)c1` the inhibition was inactive: 16.7%.
For `COc1cccc(C(=O)NCC2(N3CCCCC3)CCCCC2)c1`, the inhibition was inactive: 4.35%.
`COc1ccc(Cl)cc1C(=O)NCC1(N(C)C)CCCCC1` was tested, and the inhibition was inactive: 8.09%.
For `O=C(OC1CN2CCC1CC2)C(CO)(c1ccccc1)c1ccccc1` (stereo not given), the inhibition was inactive: -3.08%.
With `CN(C)c1cccc(C(=O)NCC2(N(C)C)CCCCC2)c1` the inhibition was inactive: -6.24%.
For `CC(C)Oc1ccc(C(=O)NCC2(N(C)C)CCCCC2)cc1`, the inhibition was inactive: 7.81%.
With `O=C(OCCN1CCCC1)C(O)(c1ccccc1)c1ccccc1` the inhibition was inactive: 2.94%.
With `COc1ccc(Br)c(C(=O)NCC2(N3CCCCC3)CCCCC2)c1` the inhibition was inactive: -3.88%.
